The numbers were not newly measured in patent publication US10695347B2, “Pyrimidine derivative and use thereof” (Hubei Bio-Pharmaceutical Industrial Technological Institute …, priority 2015, dated 2020), which cites them from elsewhere.

The subject of the series is ALK-positive NSCLC. The conditions noted are these: cited from earlier work.
The mark [1] stands for this setting: clinical trials, ALK-positive NSCLC.

Each structure is given as a SMILES string.

Regarding `C[C@@H](Oc1cc(-c2cnn(C3CCNCC3)c2)cnc1N)c1c(Cl)ccc(F)c1Cl` [Crizotinib], under setting [1], the objective response rate result is given as “around 60%” and the “survival without cancer progression” value was “about 10 months”. In addition, the “occurring rate of most common side effects (visual impairment, nausea, diarrhea, vomiting, edema, constipation)” value (two clinical trials) is “above 25%”.
